According to PubChem BioAssay AID580 (SRMLSC, 2007):
Only a part is listed here, and it is no random draw. Active and inactive are the calls of the source.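 Rule for the calls: active = viability at or under a set limit in both replicates, limit being median viability minus 3 SD (cut at about 48% in these data, passing the limit was not always enough); inconclusive = at or under the limit in just one replicate; inactive = at or above the limit in both replicates.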

Assay: growth inhibitors of H69AR lung tumor, primary screen, human, duplicate replicates (AID 580);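 note: 100% = mean luminescence of untreated wells and 0% = no signal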
Conditions: H69AR lung tumor cells viability, ATP luminescence, 72 h; at 10 µM; hits give low values

| Compound | viability |
| --- | --- |
| O=C(COc1ccccc1)OC1CN2CCC1CC2 (stereo not given) | inactive: 105% |
| COP1(=S)c2c(C)nn(CCC#N)c2N=C(c2ccc(F)cc2)N1C (stereo not given) | inactive: 78.2% |
| CCOP1(=S)c2c(C)nn(CCC#N)c2N=C(c2ccccc2F)N1C (stereo not given) | inactive: 79.3% |
| Cc1nn(-c2ccccc2)c2c1P(=O)(N1CCOCC1)N(C)C(c1ccccc1)=N2 (stereo not given) | inactive: 89.8% |
| O=P(Nc1nccs1)(c1ccccc1)c1ccccc1 | inactive: 103% |
